Data taken from patent US8685958B2, “Therapeutic agents” (AstraZeneca AB, priority 2011, dated 2014).

The chains behind the UniProt entries cited, without tags or fusion partners. Where a name states a change or a piece, a line headed by the entry shows the natural chain unless it says otherwise.
UniProt Q99705: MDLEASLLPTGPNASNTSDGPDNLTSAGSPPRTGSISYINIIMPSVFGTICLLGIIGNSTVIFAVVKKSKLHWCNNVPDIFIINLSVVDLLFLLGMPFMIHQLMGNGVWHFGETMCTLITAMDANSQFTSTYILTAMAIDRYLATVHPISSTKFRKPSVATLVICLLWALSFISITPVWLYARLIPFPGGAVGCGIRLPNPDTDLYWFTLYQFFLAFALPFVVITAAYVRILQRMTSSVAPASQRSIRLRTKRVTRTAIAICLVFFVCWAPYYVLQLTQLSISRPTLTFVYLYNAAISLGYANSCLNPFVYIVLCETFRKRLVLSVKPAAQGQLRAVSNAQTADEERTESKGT

Biological target: Melanin Concentrating Hormone Receptor 1 (MCHR1) (Homo sapiens (Human), UniProt Q99705)
Assay: MCHR1 receptor activation assay (GTPγ35S)
Assay type: biochemical
Text: MCHR1 Receptor Activation Assay:
Melanin Concentrating Hormone Receptor 1 (MCHR1) is a G-protein coupled receptor that interacts with heterotrimeric G proteins containing a Gαi/o subunit. Binding of MCH to MCHR1 results in the exchange of GDP for GTP on the Gαi/o proteins associated with the activated receptor. This activation can be quantified by measuring the amount of a GTP analog, GTPγ^35S, bound to the membrane-associated receptor. GTPγ^35S is not hydrolyzed by the intrinsic GTPase activity of a G-protein but instead forms a stable complex. Activation of MCH1 receptors may thus be quantified by measuring the amount of GTPγ^35S bound to membranes prepared from cells expressing such receptors. Membranes may be isolated by filtration or may be bound on SPA beads (Amersham). Bound GTPγ^35S may then be quantified by determining the amount of ^35S present. Inhibition of MCH binding by a competing ligand may thus be assessed by a decrease in the amount of GTPγ^35S bound to membranes in the presence of such a competing ligand.

IC50: 18 nM
Compound: COc1ccc(-c2nnc(C(=O)N3CC(Oc4ccc(CN5CCC6(CCOC6)C5)cc4)C3)o2)cc1 (stereo not shown) [Example 1, (3-(4-(2-oxa-7-azaspiro[4.4]nonan-7-ylmethyl)phenoxy)azetidin-1-yl)(5-(4-methoxyphenyl)-1,3,4-oxadiazol-2-yl)methanone]
